{"sequences": {"note": "Protein sequences, listed by entry. Tags and fused reporters are not part of them. Residues count along the entry.", "UniProt P03951, 388-625 limits assumed": "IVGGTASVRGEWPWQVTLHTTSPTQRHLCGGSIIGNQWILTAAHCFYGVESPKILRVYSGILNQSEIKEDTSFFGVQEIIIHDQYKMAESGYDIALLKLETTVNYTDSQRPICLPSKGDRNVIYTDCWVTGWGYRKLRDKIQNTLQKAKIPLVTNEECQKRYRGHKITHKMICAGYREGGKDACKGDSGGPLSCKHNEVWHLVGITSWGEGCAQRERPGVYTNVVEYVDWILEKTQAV", "UniProt P03951, 19-387 partner limits assumed": "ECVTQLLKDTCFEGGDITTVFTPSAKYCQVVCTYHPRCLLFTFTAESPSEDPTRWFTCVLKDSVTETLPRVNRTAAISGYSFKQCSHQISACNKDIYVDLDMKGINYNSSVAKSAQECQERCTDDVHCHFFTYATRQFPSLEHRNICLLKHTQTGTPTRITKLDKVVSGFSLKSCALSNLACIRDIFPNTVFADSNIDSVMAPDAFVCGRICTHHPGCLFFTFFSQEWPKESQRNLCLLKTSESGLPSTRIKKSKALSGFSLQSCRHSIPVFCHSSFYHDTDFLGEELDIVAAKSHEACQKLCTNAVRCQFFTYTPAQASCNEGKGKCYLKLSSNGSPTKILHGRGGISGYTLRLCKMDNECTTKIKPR"}, "source": "patent US10208068B2", "about": "“Macrocycles as factor XIa inhibitors” (BRISTOL-MYERS SQUIBB COMPANY, priority 2011, dated 2019)", "target": "human Factor XIa (Homo sapiens (Human), UniProt P03951)", "assay": "Factor XIa enzyme inhibition assay (chromogenic substrate S-2366)", "conditions": "read-out: Factor XIa Ki; purified human Factor XIa 25-200 pM, substrate S-2366, 50 mM HEPES pH 7.4"}
{"smiles": "Cc1c(C(=O)N[C@H]2CCC[C@@H](C)C(=O)Nc3cc(NC(=O)OCc4ccon4)ccc3-c3ccnc2c3)nnn1-c1cccc(Cl)c1F", "values": [{"measurement": "Ki", "value": "< 5", "unit": "nM"}]}
